Results on one compound are retold here after patent publication US10849898B2, “Treatment of relapsed and/or refractory solid tumors and non-Hodgkin's lymphomas” (CELGENE QUANTICEL RESEARCH, INC., priority 2016, dated 2020).

Data set [1] in a line: 4-week oral toxicity study with 4-week recovery in mice (with toxicokinetics). Conditions: 45 mg base/kg/dose QD×5/week; TK subgroup; 4 males and 1 female.
For data set [2] the following is noted: mouse, in vivo.

As for `COc1ccc(-c2c(-c3ccc(C#N)c(F)c3)nc(N3CCC(N)CC3)n(C)c2=O)cc1F` [Compound A, 4-[2-(4-amino-piperidin-1-yl)-5-(3-fluoro-4-methoxy-phenyl)-1-methyl-6-oxo-1,6-dihydro-pyrimidin-4-yl]-2-fluoro-benzonitrile], in data set [1], the “animals sacrificed in moribund condition” value was “Five animals”. In addition, in data set [2], the “reversibility of findings after 4-week treatment-free period” value is given as “partial to complete reversibility”.
